3 substances from patent US9303062B2, “Solid oxidized glutathione salt and method for producing same” (priority 2011, dated 2016) can be followed below.

The nature of data set [1]: Solubility in water at 25° C. under normal pressure. Format: physicochemical. The conditions noted are these: supernatant by HPLC. Here is the method:
The solubility of the solid oxidized glutathione salt of the present invention in water at temperature of 25° C. can be calculated according to the following formula, and the solubility is, for example, 10 mass % or more, preferably 20 mass % or more, and more preferably 30 mass % or more.
Solubility (%)=mass of dissolved oxidized glutathione/(mass of water+mass of dissolved oxidized glutathione)×100
Evaluation 1: Solubility in water at 25° C. under normal pressure and deliquescency of oxidized glutathione salt
Each of the powders of the solid-state oxidized glutathione salt obtained in the above respective Examples was dissolved in water until the powder was not further dissolved. After each slurry was stirred for 30 minutes or longer, the supernatant was obtained and the concentrations of each oxidized glutathione and salt were calculated using HPLC. For comparison, the solubilities of the following conventionally known solid oxidized glutathiones were investigated in the same manner as the above.

The nature of data set [2]: Deliquescency of powder at 25° C., normal pressure, 75% RH, observed with naked eyes. Format: physicochemical. The following applies: relative humidity 75% RH; for Deliquescency 2 hours: after 2 hours; for Deliquescency 24 hours: after 24 hours. As to the method:
The solid oxidized glutathione salt obtained as described above has low deliquescency and high water solubility. The deliquescency of the solid oxidized glutathione can be evaluated by allowing a powder of the salt to stand in an environment at a temperature of 25° C., normal pressure, e.g. 1 atmospheric pressure, and a relative humidity of 75% RH, and observing whether deliquescence starts or not with naked eyes.
Each of the powders of the solid-state oxidized glutathione salt obtained in the above respective Examples was allowed to stand in atmospheric condition of a temperature of 25° C., normal pressure and a relative humidity of 75% RH. After 2 hours or 24 hours, it was determined whether or not deliquescence was is present by observing the occurrence of shape change with naked eyes. For comparison, the deliquescencies of the above commercially available solid oxidized glutathiones were investigated in the same manner.

As for “oxidized glutathione monocalcium salt [Example 5]”, the Solubility in data set [1] is reported as 58.6 mass %. Moreover, in data set [2], the “Deliquescency 2 hours” value is “no” and the “Deliquescency 24 hours” value was “no”.
“Oxidized glutathione monohydrate [Oxidized glutathion monohydrate, reference compound]” had a Solubility in data set [1] of 2.4 mass %. For the same substance, in data set [2], the “Deliquescency 2 hours” value was “no” and the “Deliquescency 24 hours” value was “no”.
In data set [1], “Oxidized glutathione disodium salt [Oxidized glutathion disodium salt, reference compound]” registered a Solubility of 51.1 mass %. In data set [2], the “Deliquescency 2 hours” value is “deliquescent” and the “Deliquescency 24 hours” value was “deliquescent”.
